Data set [1] concerns A. actinomycetemcomitans Y4. The note with it: 24 h.
In data set [2] the test system is K12 E. coli (ATCC #25404). Particulars: read-out: EC50 uM, 3 h incubation, CFU enumeration.
Data set [3] relates to horse erythrocytes. Particulars: red cells of horse, 1 h.

The structures appear in SMILES notation. Where two headings read alike, the source gives them in different places.

Regarding `CC(C)C[C@H](NC(=O)[C@H](CCCCN)NC(=O)[C@H](CCCCN)NC(=O)[C@H](Cc1ccccc1)NC(=O)[C@H](Cc1ccccc1)NC(=O)[C@H](CCCCN)NC(=O)[C@H](CCCCN)NC(=O)[C@H](Cc1ccccc1)NC(=O)[C@H](CCCNC(=N)N)NC(=O)[C@@H](N)CCCCN)C(=O)N[C@@H](CCCCN)C(N)=O` [ATRA-1], the figures for the EC50 in data set [1] and in data set [2] were 619 nM and 0.589 µM, respectively.

Regarding `C[C@H](NC(=O)[C@H](CCCNC(=N)N)NC(=O)[C@@H](N)CCCCN)C(=O)N[C@@H](CCCCN)C(=O)N[C@@H](CCCCN)C(=O)N[C@@H](Cc1ccccc1)C(=O)N[C@@H](Cc1ccccc1)C(=O)N[C@@H](CCCCN)C(=O)N[C@@H](CCCCN)C(=O)N1CCC[C@H]1C(=O)N[C@@H](CCCCN)C(N)=O` [ATRA-2], the figures for the EC50 in data set [1] and in data set [2] were 113000 nM and 15.8 µM, respectively. The hemolysis amounted to 0.2% in data set [3] (100 ug/ml) and 2.6% in data set [3] (1000 ug/ml).

Take `CC[C@H](C)[C@H](NC(=O)[C@@H](NC(=O)[C@H](CCCCN)NC(=O)[C@@H]1CCCN1C(=O)[C@H](CCCCN)NC(=O)[C@H](CCCCN)NC(=O)[C@H](Cc1ccccc1)NC(=O)[C@H](Cc1ccccc1)NC(=O)[C@H](CCCCN)NC(=O)[C@H](CCCCN)NC(=O)[C@H](C)NC(=O)[C@H](CCCNC(=N)N)NC(=O)[C@H](CCCCN)NC(=O)[C@H](CCCCN)NC(=O)[C@@H](NC(=O)[C@H](CO)NC(=O)[C@H](CC(N)=O)NC(=O)[C@H](CCCCN)NC(=O)[C@H](CC(C)C)NC(=O)[C@H](CCCCN)NC(=O)[C@H](CCCCN)NC(=O)[C@H](Cc1ccccc1)NC(=O)[C@H](Cc1ccccc1)NC(=O)[C@H](CCCCN)NC(=O)[C@H](CCCCN)NC(=O)[C@H](Cc1ccccc1)NC(=O)[C@H](CCCNC(=N)N)NC(=O)[C@@H](N)CCCCN)C(C)C)C(C)C)C(=O)NCC(=O)N[C@H](C(=O)N[C@H](C(=O)N[C@@H](Cc1ccccc1)C(=O)N1CCC[C@H]1C(=O)N[C@@H](Cc1ccccc1)C(=O)O)[C@@H](C)O)C(C)C` [NA-CATH]: the EC50 in data set [1] was found to be 396 nM; in data set [2], 0.046 µM.

Values taken from patent publication US20120149631A1 (priority 2009, published 2012).
